Experimental findings from ChEMBL document CHEMBL4715797, “Structure-Activity Relationships of [des-Arg]Dynorphin A Analogues at the κ Opioid Receptor” (J Med Chem, 2016) are described below.

Amino acid sequences for entries named in this document (tags omitted). A change or cut given only in a name is not applied to a line headed by its entry.
UniProt P41145: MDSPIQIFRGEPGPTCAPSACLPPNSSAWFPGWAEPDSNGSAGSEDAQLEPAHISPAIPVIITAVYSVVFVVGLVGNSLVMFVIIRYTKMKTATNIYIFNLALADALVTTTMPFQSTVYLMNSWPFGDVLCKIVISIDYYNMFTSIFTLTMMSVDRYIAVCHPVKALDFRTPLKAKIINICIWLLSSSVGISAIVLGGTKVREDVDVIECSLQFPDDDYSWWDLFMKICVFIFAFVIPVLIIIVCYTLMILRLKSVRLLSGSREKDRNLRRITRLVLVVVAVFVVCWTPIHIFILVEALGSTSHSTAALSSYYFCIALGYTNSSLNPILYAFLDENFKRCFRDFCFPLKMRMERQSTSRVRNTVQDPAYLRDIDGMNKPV

Calls of active or inactive are those of the source. The rule behind the calls is not given here.

In this experiment the target is Kappa-type opioid receptor (Homo sapiens, UniProt P41145). As to the kind of experiment: Agonist activity at human KOR expressed in CHO cell membranes at 10 uM incubated for 1 hr by liquid scintillation counting based [35S]GTP-gamma-S assay. The note with it: Cell membrane, filed as agonist. The gist of the method: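 Frozen KOR-CHO cell pellets are homogenized and spun at 20 000g. 15 µg of membrane protein is incubated with test compound or vehicle and 0.1 nM [35S]GTPγS in 50 mM Tris-HCl pH 7.4 with 100 mM NaCl, 5 mM MgCl2, 1 mM EDTA and 40 µM GDP, for 1 h at 30 °C. Filtration and scintillation counting follow, and the result is expressed as % of U50,488 stimulation.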

Take `CN(C(=O)Cc1ccc(Cl)c(Cl)c1)C1CCCCC1N1CCCC1` (stereo unspecified): the outcome was Active.
